Measurements: PubChem BioAssay (NCI)
This is a selection; strong and weak results do not stand in their true shares. Where a structure was tested more than once in an assay, its records may differ in their call. The source made the active and inactive calls. No stated cut-off is given here; in the data, active means growth inhibition above about 70%; inactive means the rest.

Assay: NCI Yeast Anticancer Drug Screen. Data for the sgs1 strain (AID 173);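 further: 0% = growth of vehicle-only control cultures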
Conditions: S. cerevisiae sgs1 mutant, active compounds read high
Method: Growth inhibition of yeast strains with defined genetic alterations is measured as a screen for potential anti-cancer activity. Selected strains with alterations in DNA damage repair or cell cycle control were exposed to compounds and growth inhibition was measured relative to vehicle treated controls. The strain used in this assay is sgs1

Compound | growth inhibition (at 1.2 µM) | growth inhibition (at 3.7 µM) | growth inhibition (at 11.0 µM) | growth inhibition (at 33.0 µM) | growth inhibition (at 100.0 µM)
O=[N+]([O-])c1cc([N+](=O)[O-])c2nsnc2c1 | inactive: 28% | inactive: 41% | active: 99% | active: 99% | active: 99%
CN(C)P(=O)(N(C)C)n1c(Nc2ccccc2)nnc1-c1ccccc1 | inactive: -56% | inactive: -38% | inactive: -17% | active: 91% | inactive: -48%
FC1(F)SC2C(C1(F)F)C1(Cl)C(Cl)=C(Cl)C2(Cl)C1(Cl)Cl (stereo not given) | inactive: 49% | active: 99% | active: 99% | active: 99% | active: 98%
COc1cccc(C[N+](C)(CCCl)CCCl)c1[N+](=O)[O-] | inactive: 21% | inactive: 23% | inactive: 33% | inactive: 51% | active: 74%
O=C1OC(C(Cl)(Cl)Cl)Sc2ccccc21 (stereo not given) | inactive: -1% | inactive: 3% | inactive: 10% | inactive: 40% | active: 73%
NC(Cc1cnc[nH]1)C(=O)O (stereo not given) | inactive: -3% | inactive: 27% | active: 96% | active: 98% | active: 99%
N#Cc1cc([N+](=O)[O-])cc([N+](=O)[O-])c1N | inactive: 7% | inactive: 10% | inactive: 16% | inactive: 30% | inactive: 46%
CC(C)c1nc(Nc2ccccc2)n(P(=O)(N(C)C)N(C)C)n1 | inactive: -1% | inactive: 0% | inactive: 12% | inactive: 59% | active: 93%
